Earlier results as cited in article PMC9548544, “Population pharmacokinetic model of vancomycin in postoperative neurosurgical patients” (Frontiers in Pharmacology, 2022).

Conditions: cited from earlier work

CN[C@H](CC(C)C)C(=O)N[C@H]1C(=O)N[C@@H](CC(N)=O)C(=O)N[C@H]2C(=O)N[C@H]3C(=O)N[C@H](C(=O)N[C@H](C(=O)O)c4cc(O)cc(O)c4-c4cc3ccc4O)[C@H](O)c3ccc(c(Cl)c3)Oc3cc2cc(c3O[C@@H]2O[C@H](CO)[C@@H](O)[C@H](O)[C@H]2O[C@H]2C[C@](C)(N)[C@H](O)[C@H](C)O2)Oc2ccc(cc2Cl)[C@H]1O [vancomycin, Vancomycin]
interindividual variability of CL in other vancomycin models (neurosurgical patients, ref Li et al., 2015, Kim et al., 2016, Lin et al., 2017, Ding et al., 2018, Jing et al., 2020, Jalusic et al., 2021): 21%–61.92%
vancomycin clearance in neurosurgical patients, published studies (neurosurgical patients, ref Marsot et al., 2012, Kim et al., 2016, Lin et al., Li et al., 2017, Jing et al., 2020, Jalusic et al., 2021, 2015, Lin Wu et al., Ding et al., 2018, Chen et al., 2022): 1.67 to 2.17 mL/min/kg
vancomycin clearance in other patient groups, published studies (other patient groups, ref Marsot et al., 2012, Kim et al., 2016, Lin et al., Li et al., 2017, Jing et al., 2020, Jalusic et al., 2021, 2015, Lin Wu et al., Ding et al., 2018, Chen et al., 2022): 0.517 to 1.43 mL/min/kg
